Our source for the Solubility and lipid solubility (log p) values is patent US20070202156A1.

The nature of series [1]: Solubility of Sufentanil in additive (permeation enhancer). As to conditions: 30 min stirring.
For series [2] the following is noted: cited from earlier work.

This is a selection: effects in other tests are not listed, and their absence says nothing.

Take `CCC(=O)N(c1ccccc1)C1(COC)CCN(CCc2cccs2)CC1`: the Solubility stood at 44.8 mg/g in series [1] (in Ethyl oleate, room temperature (around 25° C.)); 44.9 mg/g in series [1] (in Isopropyl myristate, room temperature (around 25° C.)); 36.7 mg/g in series [1] (in Isopropyl palmitate, room temperature (around 25° C.)); 65.5 mg/g in series [1] (in Isostearyl alcohol, room temperature (around 25° C.)); 60.2 mg/g in series [1] (in Octyldodecanol, room temperature (around 25° C.)); 36.9 mg/g in series [1] (in Polysorbate 80, room temperature (around 25° C.)). Moreover, in series [1] (in Sorbitan trioleate, room temperature (around 25° C.)), the Solubility is given as 103.8 mg/g. The lipid solubility (log p) in series [2] was 3.95.
